# Organism: Homo sapiens
# Assay: Selectivity ratio of IC50 for gamma secretase (unknown origin) mediated Notch M1726V mutant activation in CHO K1 cells to gamma secretase (unknown origin) mediated APP cleavage in CHO cells expressing APP Swedish KM/NL mutant
# Assay type: cell-based
structure (smiles),measurement,value
O=S(=O)(N[C@H](CO)C(C(F)(F)F)C(F)(F)F)c1ccc(Cl)s1 [BEGACESTAT],Ratio IC50,16

# Reference: ChEMBL document CHEMBL4428029, “Notch Antagonists: Potential Modulators of Cancer and Inflammatory Diseases” (J Med Chem, 2016)
